Assay results reported in patent US20180148429A1 (SELVITA S.A., priority 2015, published 2018).

Protein sequences, listed by entry. Tags and fused reporters are not part of them.
UniProt Q13882, whole entry: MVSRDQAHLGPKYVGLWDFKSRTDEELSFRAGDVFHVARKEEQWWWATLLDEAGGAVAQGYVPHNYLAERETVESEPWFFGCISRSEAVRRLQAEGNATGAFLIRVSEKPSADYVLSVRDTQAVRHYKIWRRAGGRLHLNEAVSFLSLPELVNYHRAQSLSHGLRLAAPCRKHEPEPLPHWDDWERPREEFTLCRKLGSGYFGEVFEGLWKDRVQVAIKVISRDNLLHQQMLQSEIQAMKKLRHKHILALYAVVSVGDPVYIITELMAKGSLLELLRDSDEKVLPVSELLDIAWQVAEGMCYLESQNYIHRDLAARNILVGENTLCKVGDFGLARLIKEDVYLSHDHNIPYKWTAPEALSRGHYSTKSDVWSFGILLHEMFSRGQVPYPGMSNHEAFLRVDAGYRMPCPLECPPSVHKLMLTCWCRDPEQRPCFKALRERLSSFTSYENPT
UniProt Q16875, whole entry: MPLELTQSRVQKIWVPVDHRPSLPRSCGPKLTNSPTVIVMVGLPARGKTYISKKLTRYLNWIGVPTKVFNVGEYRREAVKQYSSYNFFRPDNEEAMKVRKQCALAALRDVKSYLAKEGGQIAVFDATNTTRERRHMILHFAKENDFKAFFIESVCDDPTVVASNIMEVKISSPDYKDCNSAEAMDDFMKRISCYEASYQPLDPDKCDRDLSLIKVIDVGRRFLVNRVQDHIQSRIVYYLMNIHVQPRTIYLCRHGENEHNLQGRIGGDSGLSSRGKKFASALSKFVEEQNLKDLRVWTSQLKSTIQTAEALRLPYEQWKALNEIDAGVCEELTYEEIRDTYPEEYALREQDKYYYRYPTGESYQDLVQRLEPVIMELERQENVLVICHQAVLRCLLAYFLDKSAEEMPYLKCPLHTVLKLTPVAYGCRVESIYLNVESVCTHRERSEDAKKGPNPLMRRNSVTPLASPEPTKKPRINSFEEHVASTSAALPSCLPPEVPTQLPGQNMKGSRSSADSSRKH

What was measured:
[1] = target: BRK (PTK6 protein tyrosine kinase 6) (Homo sapiens, UniProt Q13882); assay: BRK (PTK6 protein tyrosine kinase 6) IC50 determination assay (in vitro kinase assay, ADP-Glo Max); assay type: biochemical; conditions: read-out: BRK IC50, ATP 1600 uM (Km), Poly(Glu, Tyr) 160 uM, 75 nM PTK6, 45 min, RT
[2] = target: Human recombinant His-tagged PFKFB3 (Homo sapiens, UniProt Q16875); assay: PFKFB3 IC50 determination assay (in vitro kinase assay, modified ADP-Glo system); assay type: biochemical; conditions: read-out: PFKFB3 IC50, ATP 20 μM (Km), fructose-6-phosphate 2 μM (Km), 25 nM PFKFB3, 2 h, rt

Compound	IC50 [1] [µM]	IC50 [2] [µM]
Cn1ccc2ccc(-c3cc(NC4CCC45CCNCC5)cc4nccnc34)cc21 (centres unmarked)	1 to 10	
Cn1ccc2ccc(-c3cc(NC4CCN(c5cccnc5)C4)cc4nccnc34)cc21 [Example 167, 4-[(3S)-3-{[8-(1-Methyl-1H-indol-6-yl)quinoxalin-6-yl]amino}pyrrolidin-1-yl]pyrimidin-2-ol]		1 to 10
